Test results as given in PubChem BioAssay AID1046 (PCMD, 2008).
Only a part is listed here, and it is no random draw. The source made the active and inactive calls.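 How the source made its calls: active means inhibition at or above 40%; inactive means inhibition below 40%.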

Molecular target: Prothrombin (Homo sapiens) (UniProt P00734)
Experiment: blockers of thrombin peptide substrate cleavage – biochemical, 1536-well, fluorogenic AMC substrate, counter-screen for coagulation protease inhibitor project, primary screen (AID 1046);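 further: 0% = enzyme with no compound and 100% = wells without enzyme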
Conditions: alpha-thrombin, Boc-VPR-AMC fluorogenic substrate cleavage; at 5 µM; active compounds read high

SMILES	inhibition
CCOc1ccc(C)cc1CN(CCCl)CCCl	inactive: -1.06%
COc1ccc(NC2CCN(CCc3ccccc3)CC2)c(OC)c1	inactive: -4.16%
Cc1ccc(OCC(C)C)c(CN(CCCl)CCCl)c1	inactive: 1.71%
COc1ccc(C(=O)NCC2(N3CCCCC3)CCCCC2)c(OC)c1OC	inactive: -2.21%
O=C(NCC1(N2CCOCC2)CCCCC1)c1cc2ccccc2o1	inactive: -2.26%
O=C(OC1CN2CCC1CC2)C1c2ccccc2Oc2ccccc21 (stereo not drawn)	inactive: -0.51%
N#CC1(Nc2ccccc2)CCN(Cc2ccccc2)CC1	inactive: 4.72%
CCOC(=O)N1CCC(Nc2ccc(OC)cc2)CC1	inactive: -3.41%
CN(C)c1cccc(C(=O)NCC2(N3CCCCC3)CCCCC2)c1	inactive: -8.36%
COc1ccc(CN(CCCl)CCCl)cc1Cl	inactive: -2.64%
N#CC1(Nc2ccccc2)CCN(CCc2ccccc2)CC1	inactive: 3.62%
O=C(NCC1(N2CCCCC2)CCCCC1)c1cccc([N+](=O)[O-])c1	inactive: 3.87%
O=C(NCC1(N2CCOCC2)CCCCC1)c1cc(=O)[nH]c2ccccc12	inactive: -5.84%
COc1ccc(NC2CCN(C(=O)OC(C)(C)C)CC2)cc1	inactive: -9.8%
CN1CCN(CCOC(=O)C(O)(c2ccccc2)c2ccccc2)CC1	inactive: 3.8%
N#Cc1ccc(C(=O)NCC2(N3CCCCC3)CCCCC2)cc1	inactive: -4.28%
c1ccc(CN2CCC(Nc3ccccc3)CC2)cc1	inactive: -2.64%
COc1ccc(C(=O)NCC2(N3CCOCC3)CCCCC2)cc1OC	inactive: -3.15%
N/C(=N\O)c1c(N)no[n+]1[O-]	inactive: -5.32%
O=C(OC1CN2CCC1CC2)C1c2ccccc2C=Cc2ccccc21 (stereo not drawn)	inactive: -4.52%
CCOc1ncccc1C(=O)NCC1(N2CCOCC2)CCCCC1	inactive: -3.04%
CC(C)(C)OC(=O)N1CCC(Nc2ccccc2)CC1	inactive: -14.5%
COc1cc(OC)cc(C(=O)NCC2(N3CCOCC3)CCCCC2)c1	inactive: -12.3%
CCC(CO)(C(=O)OC1CN2CCC1CC2)c1ccccc1 (stereo not drawn)	inactive: 3.8%
CCCOc1ccc(C)cc1CN(CCCl)CCCl	inactive: -4.85%
Fc1ccccc1NC1CCN(Cc2ccccc2)CC1	inactive: -2.57%
CCN1CCC(Nc2cccc(F)c2)CC1	inactive: 0.39%
CN(C)c1ccc(C(=O)NCC2(N3CCCCC3)CCCCC2)cc1	inactive: -12%
